Test results from patent publication US8993349B2, “Method for enhancing transport of semiconductor nanocrystals across biological membranes” (Life Technologies Corporation, priority 2000, dated 2015).

Sequences of proteins named here, by UniProt entry; tags and fusion partners are left off. A change or cut given only in a name is not applied to a line headed by its entry.
UniProt P08482: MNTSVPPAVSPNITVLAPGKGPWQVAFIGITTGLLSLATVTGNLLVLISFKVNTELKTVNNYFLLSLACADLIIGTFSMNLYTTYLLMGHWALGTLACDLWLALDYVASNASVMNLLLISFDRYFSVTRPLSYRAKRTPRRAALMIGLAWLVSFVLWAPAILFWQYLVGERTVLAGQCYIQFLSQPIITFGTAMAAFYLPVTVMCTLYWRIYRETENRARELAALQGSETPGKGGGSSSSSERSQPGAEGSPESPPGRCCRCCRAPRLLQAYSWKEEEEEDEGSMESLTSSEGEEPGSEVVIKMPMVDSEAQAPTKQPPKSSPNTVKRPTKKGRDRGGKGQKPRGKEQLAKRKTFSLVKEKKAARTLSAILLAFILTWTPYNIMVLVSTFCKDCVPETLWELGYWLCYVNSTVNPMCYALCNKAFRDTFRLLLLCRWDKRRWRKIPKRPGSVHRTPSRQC

Target: M1 muscarinic receptor (Rattus norvegicus, UniProt P08482)
Conditions: CHO M1WT3 cells, 5 minutes at room temperature, calcium indicator dye imaging

## C[N+](C)(C)CCOC(N)=O [carbachol]
  calcium response of unencoded or encoded cells: can stimulate the calcium response
